The values below come from US20040081655A1, “Methods and compositions comprising polycationic compounds” (priority 2001, published 2004).

Data set [1] can be described thus: FACS analyses of lymphoid and non-lymphoid tissues for CpG-ODN-Cy5 (Example 2b). The class given is in vivo, Mice C57B1/6. The following applies: co-application of poly-L-arginine; FACS at day 1. The procedure:
Mice were injected subcutaneously into the right flank with a total volume of 100 μl containing the above mentioned compounds. One day after injection, mice were sacrificed and FACS-analyses were performed from secondary lymphoid organs (draining lymph node, spleen) as well as non-lymphoid tissues (lung, liver, kidney, heart) (FIG. 2b).

The nature of data set [2]: Depot formation at the injection site at day 4, labelled TRP-2 peptide/pR60/CpG-ODN (Example 3). The data set is classed as in vivo, Mice C57Bl/6. The following applies: co-injected at least with one more molecule. The procedure:
On day 0 mice were injected subcutaneously into the right flank with a total volume of […] containing the above mentioned compounds. Animals were sacrificed at day 4 after injection and photos were taken from the injection sites (FIG. 3).

Data set [3] can be described thus: Depot formation at the injection site, fluorescence-labelled compounds, photos (Example 2a). The class given is in vivo, Mice C57Bl/6. The following applies: s.c. into the right flank; photos of injection sites. The procedure:
On day 0 mice were injected subcutaneously into the right flank with a total volume of 100 μl containing the above mentioned compounds. Animals were sacrificed at the indicated time points after injection and photos were taken from the injection sites (FIG. 2a).

Consider Poly-L-Arginine, for which the “spreading of CpG-ODN-Cy5 throughout the body” value in data set [1] is “inhibits the spreading of CpG-ODN-Cy5 throughout the body”. For the same substance, the “formation of a depot at the injection site” value in data set [2] and in data set [3] was “induces the formation of a depot at the injection site” each time.
